The numbers were not newly measured in patent publication US10172953B2, “XTEN conjugate compositions and methods of making same” (Amunix Operating Inc., priority 2012, dated 2019), which cites them from elsewhere.

For the series the following is noted: reported or estimated half-life; cited from earlier work.

On to “PYY: human peptide YY polypeptide (UniProt No. P10082), includes PYY3-36 (SEQ ID NO: 544)”, for which the half-life (commonly how long it takes for the measured level to halve) is “less than 1 h”.

As for “factor X: coagulation protein (UniProt No. P00742(2-488)), SEQ ID NO: 574”, the half-life is 40 to 45 h.
